Reference: BindingDB's records for doi:10.1016/j.ejmech.2015.10.016 (University of Groningen, 2015)

Target: T1, Histone acetyltransferase KAT8 (Homo sapiens, UniProt Q9H7Z6)
T1 sequence (Q9H7Z6 whole entry): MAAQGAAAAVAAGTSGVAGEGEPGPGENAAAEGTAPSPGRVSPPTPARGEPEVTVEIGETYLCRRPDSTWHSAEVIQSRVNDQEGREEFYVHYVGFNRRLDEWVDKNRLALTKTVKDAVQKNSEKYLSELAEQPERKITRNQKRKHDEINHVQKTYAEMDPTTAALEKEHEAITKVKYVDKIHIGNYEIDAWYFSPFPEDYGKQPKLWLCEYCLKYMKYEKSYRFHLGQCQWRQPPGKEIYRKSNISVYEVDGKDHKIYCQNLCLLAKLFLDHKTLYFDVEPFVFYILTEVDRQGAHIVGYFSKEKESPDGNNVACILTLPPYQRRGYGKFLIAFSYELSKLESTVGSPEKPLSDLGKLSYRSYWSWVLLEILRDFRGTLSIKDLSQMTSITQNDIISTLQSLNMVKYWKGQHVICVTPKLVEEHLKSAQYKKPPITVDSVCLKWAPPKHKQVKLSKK
Assay: Inhibition of recombinant N-terminal His6-tagged KAT8 (unknown origin) expressed in Escherichia Coli BL21 DE3 cells assessed as reduction of Co A level using histone H4 substrate after 15 mins by CPM fluorescence assay

IC50: 214 µM
SMILES: CCCCCCCCCCCCCCCc1cccc(O)c1C(=O)O [2-Hydroxy-6-pentadecyl-benzoic acid]
